Structures are written as SMILES. Where only a bound is given, the exact number is not on record here.

By UniProt entry, the sequences of proteins in these tests, tags left out.
UniProt O43193, whole entry: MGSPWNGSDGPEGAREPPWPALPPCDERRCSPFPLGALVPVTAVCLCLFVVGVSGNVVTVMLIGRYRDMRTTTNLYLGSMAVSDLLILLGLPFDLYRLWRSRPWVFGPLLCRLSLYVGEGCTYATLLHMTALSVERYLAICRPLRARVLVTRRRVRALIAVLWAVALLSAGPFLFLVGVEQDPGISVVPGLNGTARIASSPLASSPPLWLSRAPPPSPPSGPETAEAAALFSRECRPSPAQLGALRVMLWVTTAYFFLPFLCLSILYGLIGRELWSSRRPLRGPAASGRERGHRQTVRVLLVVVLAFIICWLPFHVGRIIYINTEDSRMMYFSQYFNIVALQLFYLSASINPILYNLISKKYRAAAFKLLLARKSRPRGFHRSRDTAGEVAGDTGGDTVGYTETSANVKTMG

The target of one experiment is human motilin receptor (Homo sapiens, UniProt O43193). Briefly: Competitive radioligand binding assay (motilin receptor). The following applies: [125I]-motilin competition, membranes of CHO cells with human motilin receptor.
Consider `CC(C)C1NC(=O)C(Cc2ccc(Cl)cc2)NCCOc2ccccc2CCCNC(=O)C(CN(C)C)NC1=O` (single isomer, unassigned), for which the Ki (usually a dissociation constant, usually derived from enzyme kinetics or from competition with a known ligand) is less than 100 nM.
As to `CC(C)C1NC(=O)C(Cc2ccc(O)cc2)NCCOc2ccccc2CCCNC(=O)C(CNC(=N)N)NC1=O` (single isomer, unassigned), the Ki is greater than 1000 nM.
As for `CC(C)C1NC(=O)C(Cc2cccc(Cl)c2)NCCOc2ccccc2CCCNC(=O)C(CCC(=N)N)NC1=O` (single isomer, unassigned), the Ki is less than 100 nM.
Molecule `CC(C)C1NC(=O)C(Cc2cccc(Cl)c2)NCCOc2ccccc2CCCNC(=O)C(CN(C)C)NC1=O` (single isomer, unassigned) gave an inhibition constant (Ki) of less than 100 nM.
On the same count and under the same terms, the value for `CC(C)C1NC(=O)C(Cc2cccc(Cl)c2)NCCOc2ccccc2CCCNC(=O)C(CNC2=NCCN2)NC1=O` (single isomer, unassigned) was less than 100 nM.
As to `CCCC1NC(=O)C(C(C)C)NC(=O)C(Cc2cc(I)c(O)c(I)c2)NCCOc2ccccc2CCCNC1=O` (single isomer, unassigned), the Ki is greater than 1000 nM.

The experiment is the same for the next values; noted with them: [125I]-motilin competition, membranes of CHO cells with human motilin receptor; tested form: TFA.
As for `CC1COc2ccccc2CCCNC(=O)C(CNC(=N)N)NC(=O)C(C(C)C)NC(=O)C(Cc2cccc(Cl)c2)N1` (single isomer, unassigned), the inhibition constant Ki is less than 1000 nM.

The record behind these values is US9133235B2, “Macrocyclic antagonists of the motilin receptor for treatment of gastrointestinal dysmotility disorders” (Ocera Therapeutics, Inc., priority 2006, dated 2015).
